Laboratory results from US20220265606A1, “ANTICANCER AGENTS” (The Texas A&M University System, priority 2019, published 2022).

Assays:
[1] = test system: 15037, 14015s and U87-MG cells; assay: Ki67 immunofluorescence; format: cell-based, human; details: 24 hours
Experimental: Immunofluorescence. […] Cells were then fixed with 37% formalin, blocked, treated with fluorescent Ki67 primary antibody for 24 hr. […] Finally, cells were observed using a Zeiss confocal fluorescence microscope.
Glioblastoma cells were treated with different concentrations of 4-Cl (FIG. 6A), 3-CF3-4-Cl (FIG. 6B), and 2-OH-4-Br (FIG. 6C) and effects on induction of Annexin V were determined as outlined herein. Glioblastoma cells were treated with different concentrations of NR4A2 antagonists and whole cell lysates were analyzed for markers of apoptosis by western blots.

15037 and 14015s cells [2] = assay: Boyden chamber invasion assay; details: 12.5 μM (3-CF3-4-Cl and 2-OH-4-Br) or 20 μM (C-DIM 12)
15037 and 14015s cells [3] = assay: Scratch (migration) assay

With `Clc1ccc(C(c2c[nH]c3ccccc23)c2c[nH]c3ccccc23)cc1` [CDIM-4-Cl] the “Ki67 (proliferation marker) staining” value [1] was “decreased Ki67”, the “Cell invasion, Boyden chamber” value (15037 and 14015s cells [2]) was “required higher concentrations” and the “Migration, scratch assay” value (15037 and 14015s cells [3]; 20 μM) was “minimal inhibition of migration”.

With `Oc1cc(Br)ccc1C(c1c[nH]c2ccccc12)c1c[nH]c2ccccc12` [Ligand 2-OH-4-Br] the “Migration, scratch assay” value (15037 and 14015s cells [3]; 12.5 μM) was “inhibited migration”.

In the case of `FC(F)(F)c1cc(C(c2c[nH]c3ccccc23)c2c[nH]c3ccccc23)ccc1Cl` [Ligand 3-CF3-4-Cl], the “Migration, scratch assay” value (15037 and 14015s cells [3]; 12.5 μM) is reported as “inhibited migration with the latter compound being the most potent inhibitor”.
